scFv variants of Ab-14 (light chain) against a SARS-CoV-2 spike peptide

The measurements come from Li et al. 2023 (doi:10.1038/s41467-023-39022-2) through the FLAb antibody collection.

Binding partner: SARS-CoV-2 spike HR2 peptide, sequence PDVDLGDISGINAS.

Parent scFv Ab-14: VH joined to VL by the linker GGGGSGGGGSGGGGS. Changes lie in the light chain CDRs alone.
VH: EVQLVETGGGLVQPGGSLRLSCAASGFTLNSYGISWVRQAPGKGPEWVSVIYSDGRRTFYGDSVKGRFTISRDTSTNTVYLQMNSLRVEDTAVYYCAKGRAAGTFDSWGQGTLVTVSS
VL: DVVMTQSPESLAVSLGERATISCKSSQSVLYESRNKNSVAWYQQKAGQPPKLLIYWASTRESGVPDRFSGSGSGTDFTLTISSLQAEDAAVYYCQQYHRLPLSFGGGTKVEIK

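The starting antibody came from a phage panning campaign against this peptide. This is the validation round: designs drawn from the data on random variants, tested in the same kind of assay. Their group label is 14L_En_Gibbs (En: ensemble of fine-tuned language models; Gibbs: Gibbs sampling). AlphaSeq pools MATa yeast showing the antibodies with MATalpha yeast showing the peptide. The frequency of each diploid, read from paired DNA barcodes, reflects how well the two displayed proteins bind. Read counts were normalised to the haploid input and turned into Kd by a linear fit to BCL2-family pairs of known affinity, for each replicate. There are six technical replicates.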

Each variant is given by its three light chain CDRs, as the data file delimits them; those of the parent are KSSQSVLYESRNKNSVA, WASTRES, QQYHRLPLS. Values are log10 of the apparent Kd in nM; lower means stronger binding. Averages over replicates are reported, and they cover detected replicates only. "nd" marks a missing value. The strain was present, yet no cells mated with the target were sequenced in that replicate, which points to weak or no binding. The parent sequence was in this pool as ten entries: three were never detected, three once, and four in most replicates, with averages from 0.34 to 2.37.

QIAMEMYHGLNDAQNVA / DAMTYEK / QQYSRLPLF: 1.81, nd, 2.36, nd, nd, nd (mean 2.08; controls 0 of 18).
SLFESEREELSVEQNIA / DGTEHMR / QQYFQLPLL: 1.72, 2.18, nd, nd, 2.38, 1.09 (mean 1.84; controls 0 of 18).
VMFGGLNFGNIEHQAIA / NVDVREK / QQYHRLPLQ: -0.11, -0.15, -0.13, -0.42, -0.30, -0.06 (mean -0.20; controls 2 of 18).
HVEHASLLSNATMNSVA / NEACLAD / QQYHRLPLA: 1.15, 0.60, 1.02, 0.40, 1.27, 0.67 (mean 0.85; controls 0 of 18).
KFDMHIPYQGEQNAHIA / GTTNRLT / QQYFKLPLS: 0.11, 0.36, -0.14, -0.06, -0.13, 0.32 (mean 0.08; controls 0 of 18).
QFNLALENSGHRMNNIA / EETMKPD / QQYVRLPLQ: 1.37, 1.55, 1.92, 1.47, 1.27, 1.11 (mean 1.45; controls 1 of 18).
MIDMEEAPNKQQASSIA / QGGLRAK / QQYYRLPLC: 0.18, 0.12, -0.07, -0.27, -0.02, 0.06 (mean 0.00; controls 0 of 18).
KVGAYPQGVEQDMQNVA / EGSYAST / QQYHRLPLS: 1.30, 1.25, 0.94, 0.35, 1.08, 1.89 (mean 1.14; controls 1 of 18).
RITEQYFEYMGNCNNVA / EAECKQY / QQYAHLPLL: 1.48, 2.74, 1.24, 1.45, 1.90, 1.32 (mean 1.69; controls 1 of 18).
NLSMELEDMGVKTGSIA / ENQLPEY / QQYARLPLM: 1.20, 0.96, 0.85, 0.80, 0.74, 0.99 (mean 0.92; controls 0 of 18).
RIQMQVTWPGNARQNVA / EIQTAID / QQYAHLPLS: 1.98, 1.97, nd, 3.14, 1.95, nd (mean 2.26; controls 1 of 18).
MIDWGELPNGQQTSSIA / QGHLRAG / QQYGRLPLC: 0.74, 0.84, 0.64, 0.55, 0.59, 0.74 (mean 0.68; controls 0 of 18).
SMGWAHENGDNWMNSIA / DATHLAY / QQYSRLPIT: 0.47, 0.35, 0.63, 0.31, 0.44, 0.90 (mean 0.51; controls 0 of 18).
YMSMYLDMQQSIQCGVA / DATTRNA / QQYQRLPLS: -0.29, -0.67, -0.58, -0.33, -0.57, -0.48 (mean -0.49; controls 2 of 18).
FMDFQDLMWQYDANNIA / GATLSVE / QQYGRLPLT: 1.71, 3.17, 1.64, 1.43, 1.03, 1.79 (mean 1.79; controls 0 of 18).
NMNVGLNFGKIQEQAIA / EVEDRES / QQYARLPLT: 1.30, 1.40, 1.08, 0.81, 0.73, 1.19 (mean 1.09; controls 0 of 18).
HMKDEPGLGPQTYSSVA / HANIREP / QQYYRLPLM: 0.78, 0.36, 0.10, 0.39, 0.41, 0.63 (mean 0.45; controls 1 of 18).
NITYAATQLQRIDSNVA / AGSARCR / QQYYRLPLS: 2.02, 0.60, 0.79, 0.49, 0.55, 0.51 (mean 0.83; controls 1 of 18).
QFDMFEPYQGEQNASIA / GTTNRLT / QQYQKLPLS: 1.62, 1.03, 0.22, 1.64, 0.26, 1.16 (mean 0.99; controls 0 of 18).
KFFGGIPEQERDDYSIA / KGTLRET / QQYQRLPLS: -0.01, -0.13, 0.27, 0.02, 0.22, 0.69 (mean 0.18; controls 0 of 18).
MINMEIGIEDRKWQAVA / SATVRAS / QQYGRLPFS: 0.71, 1.74, nd, 1.30, 0.76, 3.33 (mean 1.57; controls 0 of 18).
NLGQKMALITEQRQQIA / DSTVRED / QQYSRLPLT: 0.24, 0.32, -0.11, -0.19, 0.25, 0.03 (mean 0.09; controls 2 of 18).
ALALTLHQVDSQMNNIA / EGMLRES / QQYNRLPLN: nd, nd, nd, nd, 1.29, nd (controls 0 of 18).
HMNDMLLGQEKIAHSIA / NTGVTSR / QQYQRLPLI: 1.38, 1.59, 1.01, 0.85, 0.86, 1.12 (mean 1.13; controls 0 of 18).
KWQNDSLFMGQYMNNIA / NTSLRTE / QQYYQLPLT: 0.72, 0.98, 0.70, 0.08, 0.67, 1.05 (mean 0.70; controls 0 of 18).
KIELDLTRYNNGYSAIA / NETQKAN / QQYSRLPLV: 0.50, 0.47, 0.42, 0.63, 0.67, 0.30 (mean 0.50; controls 0 of 18).
HLYTGNYTQKNRTNAIA / DARERVQ / QQYSRLPIM: 2.17, 1.14, 1.35, 1.50, 1.09, 1.18 (mean 1.40; controls 0 of 18).
KLAMYMEMNARTNHHIA / EANLKPS / QQYNRLPFS: 1.38, 1.19, 0.86, 1.28, 0.92, 0.71 (mean 1.05; controls 1 of 18).
KLLDYEYGTWAMNSAIA / DAALESD / QQYDRLPLT: nd, 1.15, 0.59, 1.63, nd, 0.90 (mean 1.07; controls 1 of 18).
QLGKQSQGLMVSNQSVA / NEEMRAK / QQYFRLPFI: 1.61, 0.75, 0.92, 0.82, 0.83, 1.08 (mean 1.00; controls 0 of 18).
NLMHHQGRYDVWKYSIA / EASIRAS / QQYFRLPLA: 1.46, 1.44, 0.31, 1.23, 0.89, 0.81 (mean 1.02; controls 0 of 18).
SLQEQSFVGQKDSNSMA / DSECKYN / QQYFQLPLM: 1.40, 1.09, nd, 1.52, 1.11, 0.58 (mean 1.14; controls 0 of 18).
RLNDYQYAITGDNYAIA / NARETLM / QQYMRLPLT: 0.31, 0.31, -0.35, -0.38, -0.29, 0.37 (mean 0.00; controls 0 of 18).
QFHSTMAGDQRNVHSIA / NATWAVP / QQYFRLPLS: 0.44, 0.35, -0.09, 0.56, 0.09, 1.02 (mean 0.39; controls 0 of 18).
QINMEMNHDLDDEQNVA / DAMTEVK / QQYGRLPLS: nd, 4.05, nd, nd, nd, nd (controls 0 of 18).
HVAMLLGQQHGKQANIA / EADELMT / QQYYTLPLA: 0.80, 0.63, 0.59, 0.38, 0.85, 0.81 (mean 0.68; controls 1 of 18).

In the paper, a design with two or fewer of six values counts as a poor binder. Three control strains display no target. For all light chain designs, 4% of the pairings with them gave a signal, with a median of 2.64 and one signal in twenty below 1.59, so weak values seen in few replicates may be background. For each scFv, signals with the empty controls are counted beside the result. The range of this assay differs from that of the first round, and the authors advise against merging the two.